Measured values taken from US20210301011A1, “COMPOSITION FOR PROPHYLAXIS OR TREATMENT OF IL-8 RELATED DISEASES” (CHUGAI SEIYAKU KABUSHIKI KAISHA, priority 2016, published 2021).

The chains behind the UniProt entries cited, without tags or fusion partners. Residues count along the entry.
UniProt P10145, 23-99 limits assumed: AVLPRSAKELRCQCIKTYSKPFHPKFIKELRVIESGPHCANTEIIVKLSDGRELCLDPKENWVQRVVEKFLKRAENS

B1: H89/L118: pH-dependent anti-IL-8 antibody, H89-IgG1 heavy chain, L118-kOMT (SEQ ID NO:44) light chain (antibody)
heavy: QVQLVESGGGLVQPGGSLRLSCAASGFTFSDYYLSWVRQAPGKGLEWVGLIRNKANGYTREYSASVKGRFTISRDDSKNSLYLQMSSLKTEDTAVYYCARENHRYDVELAYWGQGTLVTVSSASTKGPSVFPLAPSSKSTSGGTAALGCLVKDYFPEPVTVSWNSGALTSGVHTFPAVLQSSGLYSLSSVVTVPSSSLGTQTYICNVNHKPSNTKVDKKV[human IgG1 Fc skipped]
light: DIQMTQSPSSLSASVGDRVTITCRASEIIYSYLAWYQQKPGKAPKLLIYHAKTHADGVPSRFSGSGSGTDFTFTISSLQPEDIATYYCKHHFGFPRTFGQGTKVEIKRTVAAPSVFIFPPSDEQLKSGTASVVCLLNNFYPREAKVQWKVDNALQSGNSQESVTEQDSKDSTYSLSSTLTLSKADYEKHKVYACEVTHQGLSSPVTKSFNRGEC
B2: Hr9: humanized anti-human IL-8 antibody, Hr9-IgG1 (SEQ ID NO:41) heavy chain, hWS4L-kOMT light chain (antibody)
heavy: B1 heavy with H103Y
light: B1 light with H50N, H54L, K89Q
B3: Hr9/L16: Hr9 variant, light chain mutation L54H (antibody)
heavy: B1 heavy with H103Y
light: B1 light with H50N, K89Q

Tests used:
human IL-8 [1] = target: T1, human IL-8 (Homo sapiens, UniProt P10145); assay: Stability of human IL-8-neutralizing activity after storage in mouse plasma (human CXCR2-expressing cells); format: cell-based; details: antibody 0.2 mg/mL in mouse plasma, 40° C., one and two weeks; human IL-8 2 nM
Protocol: Mouse plasma was collected from the blood of C57BL/6J (Charles River) by a method known to those skilled in the art. 200 μL of 200 mM PBS (Sigma, P4417) was added to 800 μL of mouse plasma to give 1 mL. Furthermore, sodium azide was added at a final concentration of 0.1% as an antiseptic. […] At this point, a portion of the sample was collected as the initial sample. The remaining sample was stored at 40° C. One week and two weeks after storage, a portion of each sample was collected, and they were used as the one-week-stored sample and the two-week-stored sample. All samples were frozen at −80° C. and stored until each analysis was performed.
Next, anti-IL-8 antibodies contained in mouse plasma were evaluated for their human IL-8-neutralizing activity as follows: CXCR1 and CXCR2 are known receptors for human IL-8. The PathHunter(registered trademark) CHO-K1 CXCR2 β-Arrestin cell line (DiscoveRx Co., Cat. #93-0202C2) expresses human CXCR2, and is a cell line artificially produced so as to emit chemiluminescence when human IL-8-mediated signals are transmitted. […]
Then, the above-mentioned cell line was used to examine whether the neutralizing activity of an antibody stored in mouse plasma was maintained. […] Next, a detection reagent was added according to the protocol of the product, and the relative chemiluminescence level was detected using a chemiluminescence detector. […]

human IL-8 [2] = target: T1, human IL-8; assay: Mouse PK assay: human IL-8 elimination after simultaneous administration of human IL-8 and anti-human IL-8 antibody; format: in vivo, mice (C57BL/6J); details: C57BL/6J mice
Protocol: After simultaneous administration of human IL-8 and anti-human IL-8 antibodies to mice (C57BL/6J, Charles river), pharmacokinetics of human IL-8 were evaluated. A mixed solution of human IL-8 and an anti-human IL-8 antibody (10 μg/mL and 200 μg/mL, respectively) was administered in a single dose at 10 mL/kg to the tail vein. […] Blood was collected five minutes, two hours, four hours, seven hours, one day, two days, three days, seven days, 14 days, 21 days, and 28 days after the administration. The collected blood was immediately centrifuged at 15,000 rpm and 4° C. for 15 minutes to obtain plasma. The separated plasma was stored in a freezer set at −20° C. or below until measurements were taken.
The human IL-8 concentration in mouse plasma was determined by an electrochemiluminescence method. First, an anti-human IL-8 antibody (prepared in-house) having a mouse IgG constant region was dispensed into a MULTI-ARRAY 96-well Plate (Meso Scale Discovery), and was allowed to stand at room temperature for one hour. Then, a PBS-Tween solution containing 5% BSA (w/v) was used for blocking at room temperature for two hours to prepare an anti-human IL-8 antibody-immobilized plate. […] Subsequently, 50 μL of the mixed solutions were dispensed into each well of the anti-human IL-8 antibody-immobilized plate, and the solution was stirred at room temperature for one hour. […] Then, after one hour of reaction with a Biotin Mouse Anti-Human Igκ Light Chain (BD Pharmingen) at room temperature, and then one hour of reaction with SULFO-TAG Labeled Streptavidin (Meso Scale Discovery) at room temperature, Read Buffer T (×1) (Meso Scale Discovery) was dispensed, and measurements were performed immediately with SECTOR Imager 2400 (Meso Scale Discovery). The human IL-8 concentration was calculated based on the response in the calibration curve using the analytical software, SOFT Max PRO (Molecular Devices).
Administration to mice and blood collection, and measurement of the human IL-8 concentration in mouse plasma were carried out by the method shown in Example 7.

human IL-8 [3] = target: T1, human IL-8; assay: Mouse PK assay with increased dose of antibody (2 mg/kg or 8 mg/kg); format: in vivo, mice (C57BL/6J); details: C57BL/6J mice
Protocol: A mixed solution of human IL-8 (2.5 μg/mL) and an anti-human IL-8 antibody (200 μg/mL or 800 μg/mL) was administered to the tail vein in a single dose of 10 mL/kg. At this time, since a sufficiently excessive amount of the anti-human IL-8 antibody is present compared to human IL-8, almost all of the human IL-8 are considered to be bound to the antibody. Blood was collected five minutes, seven hours, one day, two days, three days, seven days, 14 days, 21 days, and 28 days after the administration. The collected blood was immediately centrifuged at 15,000 rpm and 4° C. for 15 minutes to obtain plasma. The separated plasma was stored in a freezer set at −20° C. or below until measurements were taken.
Measurement of the human IL-8 concentration in mouse plasma was carried out by a method similar to that of Example 7-2. The resulting data on the human IL-8 concentration in plasma is shown in FIG. 16, and the values for human IL-8 clearance (CL) from mouse plasma are shown in Table 9.
The resulting data on the human IL-8 concentration in plasma is shown in FIG. 17, and the values of human IL-8 clearance (CL) from mouse plasma are shown in Table 11.

human IL-8 [4] = target: T1, human IL-8; format: binding
Protocol: The following two running buffers were used: • 0.05% tween 20, 20 mM ACES, 150 mM NaCl, pH 7.4; • 0.05% tween 20, 20 mM ACES, 150 mM NaCl, pH 5.8.
An appropriate amount of Protein A/G (PIERCE) was immobilized onto Sensor chip CM4 (GE Healthcare) by the amine coupling method and the antibodies of interest was captured. Next, human IL-8 was made to interact with the antibodies captured on the sensor chip by injecting a diluted human IL-8 solution and a running buffer (used as a reference solution). For the running buffer, any of the above-mentioned solutions was used, and the respective buffers were also used to dilute human IL-8. To regenerate the sensor chip, 10 mM glycine-HCl at pH 1.5 was used. All measurements were carried out at 37° C. KD (M) of each antibody for human IL-8 was calculated based on the association rate constant kon (1/Ms) and dissociation rate constant koff (1/s), which are kinetic parameters calculated from sensorgrams obtained by the measurements. The BIACORE T200 Evaluation Software (GE Healthcare) was used to calculate each parameter.

[5] = human IL-8 10 μg/mL + antibody 200 μg/mL, single dose 10 mL/kg tail vein

| Molecule | human IL-8-neutralizing activity before and after storage in mouse plasma (human IL-8 [1]) | increase of rate of human IL-8 elimination (CL) as compared to H998/L63 (human IL-8 [2]; antibody 2 mg/kg) | Human IL-8 CL (mL/d/kg), Average (N = 3) (human IL-8 [2]; [5]) [mL/day/kg] | Human IL-8 CL (mL/d/kg), individual mice #1-#3 (human IL-8 [2]; [5]) | slower rate of human IL-8 elimination at 8 mg/kg compared to 2 mg/kg (human IL-8 [3]) | Human IL-8 CL (mL/d/kg), Average (N = 3) (human IL-8 [3]; Antibody Dose 2 mg/kg) [mL/day/kg] | Human IL-8 CL (mL/d/kg), Average (N = 3) (human IL-8 [3]; Antibody Dose 8 mg/kg) [mL/day/kg] | koff (human IL-8 [4]; pH 5.8) [s⁻¹] | kon (human IL-8 [4]; pH 5.8) [M⁻¹ s⁻¹] | koff (human IL-8 [4]; pH 7.4) [s⁻¹] | kon (human IL-8 [4]; pH 7.4) [M⁻¹ s⁻¹] |
| --- | --- | --- | --- | --- | --- | --- | --- | --- | --- | --- | --- |
| B1 | differences in the human IL-8-neutralizing activity before and after storage in mouse plasma were not observed | about 19 fold | 465.1 | 472.2 mL/day/kg and 447.2 mL/day/kg and 476.0 mL/day/kg | approximately 2 fold | 221.8 | 103.0 | – | – | – | – |
| B2 | differences in the human IL-8-neutralizing activity before and after storage in mouse plasma were not observed | – | – | – | – | – | – | – | – | – | – |
| B3 | – | – | – | – | – | – | – | 0.000197 | 39100 | 9.57e-05 | 890000 |

Substitutions are numbered along the chain they refer to. Names and notes keep the numbering of the source. Values joined by “and” are separate entries in the source; they are usually repeats but may differ in a detail not shown here. Identical values can stand only once. Like-named read-outs stand apart in the source and are kept apart here.
